Molecular target: T1, FXR ligand-binding domain (LBD) (Homo sapiens, UniProt Q96RI1)
T1 sequence (Q96RI1 243-472 isoform Q96RI1-2): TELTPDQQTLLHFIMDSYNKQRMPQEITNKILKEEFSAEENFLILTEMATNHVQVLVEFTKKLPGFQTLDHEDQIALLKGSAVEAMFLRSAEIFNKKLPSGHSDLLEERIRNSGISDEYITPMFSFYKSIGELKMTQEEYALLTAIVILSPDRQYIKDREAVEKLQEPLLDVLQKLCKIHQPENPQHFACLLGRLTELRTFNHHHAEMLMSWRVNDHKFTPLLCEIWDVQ
Assay: AlphaScreen coactivator recruitment assay
Format: biochemical
Conditions: gradient GS; OCA 1 μM, FA 10 μM; dose-dependent

In the case of Guggulsterone E&Z [GS], the “effect on OCA- and FA-induced recruitment of SRC2-3 to FXR” value is reported as “blocked”.
